Reference: article PMC5957530 (FEBS letters, 2017)

Target: T1, O-acetylserine sulfhydrylase-A (CysK) from E. coli (E. coli, UniProt P0ABK5 1-323, bound pyridoxal 5'-phosphate (PLP) cofactor)
T1 sequence (looked up): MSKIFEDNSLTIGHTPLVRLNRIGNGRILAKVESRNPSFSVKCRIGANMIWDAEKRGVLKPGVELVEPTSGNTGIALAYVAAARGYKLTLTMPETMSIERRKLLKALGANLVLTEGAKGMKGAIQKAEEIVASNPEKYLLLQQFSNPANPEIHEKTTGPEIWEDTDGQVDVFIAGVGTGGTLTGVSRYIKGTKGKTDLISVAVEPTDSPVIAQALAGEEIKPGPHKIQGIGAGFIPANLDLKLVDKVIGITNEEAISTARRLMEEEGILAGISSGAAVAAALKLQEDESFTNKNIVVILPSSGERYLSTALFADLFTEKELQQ
Assay: inhibition of enzyme activity

B1: serine acetyltransferase (CysE) from E. coli (enzyme, UniProt P0A9D4 1-273, looked up)
chain: MSCEELEIVWNNIKAEARTLADCEPMLASFYHATLLKHENLGSALSYMLANKLSSPIMPAIAIREVVEEAYAADPEMIASAACDIQAVRTRDPAVDKYSTPLLYLKGFHALQAYRIGHWLWNQGRRALAIFLQNQVSVTFQVDIHPAAKIGRGIMLDHATGIVVGETAVIENDVSILQSVTLGGTGKSGGDRHPKIREGVMIGAGAKILGNIEVGRGAKIGAGSVVLQPVPPHTTAAGVPARIVGKPDSDKPSMDMDQHFNGINHTFEYGDGI
Ki: 6.2 ± 0.7 nM
